Experimental findings from US7674819B2 (Warner-Lambert Company LLC, priority 2005, dated 2010) are described below.

The chains behind the UniProt entries cited, without tags or fusion partners.
UniProt P10275, whole entry: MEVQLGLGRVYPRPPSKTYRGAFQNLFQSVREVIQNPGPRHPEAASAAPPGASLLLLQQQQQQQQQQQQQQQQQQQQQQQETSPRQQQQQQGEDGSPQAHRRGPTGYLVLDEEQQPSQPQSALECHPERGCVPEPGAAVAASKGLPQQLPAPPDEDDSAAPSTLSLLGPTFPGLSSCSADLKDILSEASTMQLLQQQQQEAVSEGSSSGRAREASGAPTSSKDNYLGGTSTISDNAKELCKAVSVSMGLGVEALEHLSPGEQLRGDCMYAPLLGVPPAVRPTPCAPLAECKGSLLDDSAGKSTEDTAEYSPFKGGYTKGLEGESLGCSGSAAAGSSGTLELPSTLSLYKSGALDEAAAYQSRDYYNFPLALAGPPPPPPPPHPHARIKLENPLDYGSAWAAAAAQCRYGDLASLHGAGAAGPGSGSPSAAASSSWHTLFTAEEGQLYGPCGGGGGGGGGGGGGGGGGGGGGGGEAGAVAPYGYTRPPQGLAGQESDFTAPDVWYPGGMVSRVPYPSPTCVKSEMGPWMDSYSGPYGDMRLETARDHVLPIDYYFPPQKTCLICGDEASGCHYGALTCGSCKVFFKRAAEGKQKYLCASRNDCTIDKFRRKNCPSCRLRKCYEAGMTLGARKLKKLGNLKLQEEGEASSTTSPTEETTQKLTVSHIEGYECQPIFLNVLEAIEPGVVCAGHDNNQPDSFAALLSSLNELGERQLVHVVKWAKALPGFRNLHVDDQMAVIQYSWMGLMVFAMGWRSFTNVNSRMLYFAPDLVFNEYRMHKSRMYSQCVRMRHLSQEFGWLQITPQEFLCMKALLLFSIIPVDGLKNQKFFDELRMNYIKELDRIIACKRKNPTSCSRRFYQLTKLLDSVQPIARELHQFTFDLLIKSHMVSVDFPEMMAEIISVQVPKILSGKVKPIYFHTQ
UniProt P10275, whole entry Q868H: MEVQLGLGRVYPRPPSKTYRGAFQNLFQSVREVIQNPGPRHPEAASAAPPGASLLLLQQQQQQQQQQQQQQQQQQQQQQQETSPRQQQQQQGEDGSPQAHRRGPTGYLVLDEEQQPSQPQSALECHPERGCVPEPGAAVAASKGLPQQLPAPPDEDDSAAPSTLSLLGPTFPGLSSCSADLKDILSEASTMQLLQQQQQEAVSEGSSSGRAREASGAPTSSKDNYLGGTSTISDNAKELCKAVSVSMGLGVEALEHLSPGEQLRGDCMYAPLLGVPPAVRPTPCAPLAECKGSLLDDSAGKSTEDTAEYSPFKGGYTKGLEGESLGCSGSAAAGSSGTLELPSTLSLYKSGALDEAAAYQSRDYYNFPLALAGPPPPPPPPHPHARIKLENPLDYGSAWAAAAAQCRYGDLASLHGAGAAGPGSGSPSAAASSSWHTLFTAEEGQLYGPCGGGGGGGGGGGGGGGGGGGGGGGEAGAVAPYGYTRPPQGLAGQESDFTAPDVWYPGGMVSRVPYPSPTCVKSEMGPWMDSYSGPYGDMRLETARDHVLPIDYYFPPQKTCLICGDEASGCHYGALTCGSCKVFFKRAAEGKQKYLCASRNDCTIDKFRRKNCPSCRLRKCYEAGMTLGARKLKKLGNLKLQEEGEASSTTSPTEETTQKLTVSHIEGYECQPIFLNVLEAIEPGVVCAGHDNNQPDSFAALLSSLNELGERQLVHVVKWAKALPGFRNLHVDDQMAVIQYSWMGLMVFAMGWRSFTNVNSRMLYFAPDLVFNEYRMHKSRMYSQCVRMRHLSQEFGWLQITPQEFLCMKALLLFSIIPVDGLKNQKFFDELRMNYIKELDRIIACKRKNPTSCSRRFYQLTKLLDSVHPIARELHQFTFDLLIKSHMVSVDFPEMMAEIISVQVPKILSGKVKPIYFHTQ

SMILES strings stand for the structures.

For one assay, the target named is hAR (Homo sapiens, UniProt P10275). The assay is described as follows: Competitive binding of 3H-DHT to baculovirus/Sf9 generated hAR extracts. To be noted: concentration at which one half of maximum binding of 1 nM 3H-DHT to hAR is inhibited; one hour at 4° C.; mean of multiple tests.
The target in the next assay is androgen receptor (Homo sapiens, UniProt P10275). The assay is described as follows: AR Antagonist Cell Assay (MDA-MB453-MMTV clone 54-19, luciferase reporter). Type of assay: cell-based. To be noted: inhibition of induction by DHT (final concentration at 100 μM), 17 hr; compound 0.32-1000 nM; mean of multiple tests. In general terms: A reporter such as luciferase makes a cellular process visible.

Take `Cc1nnsc1-c1nnc(CN2CC(C)(C)C(Oc3ccc(C#N)c(C(F)(F)F)c3)C2=O)o1` (centres unmarked): the IC50 (as a rule, the concentration at which inhibition is half-maximal) on hAR came out at 191 nM; against androgen receptor it was 542 nM.
